# Test results taken from paper PMC7997635 (Journal of medicinal chemistry, 2021).
# Tests used:
# Type in all cases: cell-based, Plasmodium falciparum
# Pf Dd2-GC03 = assay: PfCRT gene edited isogenic line Dd2-GC03
# P. falciparum 3D7 = assay: SYBR Green parasite growth inhibition assay, 72 h
# P. falciparum Dd2 = assay: SYBR Green parasite growth inhibition assay, 72 h
# [1] = test system: Hz formation in NF54 parasites; assay: Cellular heme fractionation assay
smiles,measurement,setting,value
"Cc1ccccc1-n1nnnc1C(c1cncnc1)N(Cc1cccc(C(F)(F)F)c1)C1CC1 (centres unmarked) [Compound 10, N-(Pyrimidin-5-yl(1-(o-tolyl)-1H-tetrazol-5-yl)methyl)-N-(3-(trifluoromethyl)benzyl)cyclopropanamine]",Fold Diff Dd2-GC03 relative to Dd2-GC03,Pf Dd2-GC03,1.0
same,"Fold Diff, 3D7 relative to 3D7",P. falciparum 3D7,1.0
same,"Fold Diff in EC50, Dd2 relative to 3D7",P. falciparum Dd2,3–5 fold
same,fold decrease in Hz heme Fe,[1]; at 3× EC50 vs no-drug control,2 fold
same,levels of free heme relative to CQ,[1]; fold higher than CQ across the dose response range,3 – 4 fold
